Most compounds without a hit are left out; they make up all but 13% or so of the library.
KDM4E inh – JMJD2E (human) inhibition | 230,000 tested, 1.6% active | Potency, µM (highest dose often 57.1 µM), hits mostly inhibitors | B2RXH2 | JMJD2E catalytic domain, FDH-coupled NADH fluorescence (FDH is formaldehyde dehydrogenase); also: nearly all actives have a fitted effect of over 50% in size
LMNA splice mod – changes lamin A minigene splicing in HeLa cells | Potency, µM (doses to about 46.1 µM), actives largely listed as inhibitors | HeLa LMNA splicing GFP/RFP minigene ratio, 48 h | 200,000 tested, 0.01% active; active = well fitted inhibition curve with a large enough effect in the signal ratio, with a control signal flat, not every such curve was filed as active; inconclusive = small, poorly fitted or top-dose-only effect, or effect the other way, or a change in a side signal; the % refers to the signal ratio
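S3 HeLa cells stably expressing lamin A-EGFP splicing minigene plus DsRed2, 600 cells/well, 48 h compound exposure at 37C. Laser-scanning cytometry; analysed as GFP (500-530 nm)/RFP (575-640 nm) total intensity ratio; 0.5% DMSO vehicle.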
ALDH1A1 inh – ALDH1A1 (human) enzyme inhibition. Purified ALDH1A1, NADH fluorescence, propionaldehyde substrate. 220,000 tested, 7.3% active. P00352. Potency, µM (top dose mostly 75.3 µM), actives largely listed as inhibitors. AID 1030; active = well fitted inhibition curve with a large enough effect, not every such curve was filed as active; inconclusive = small, poorly fitted or top-dose-only effect, or another doubt; inactive = no such curve, though single readings can be large or run the other way
G9a block – inhibitors of human histone lysine methyltransferase G9a | Q96KQ7 | G9a H3K9 monomethylation, AlphaScreen, 2 h | Potency, µM (doses to about 102 µM), most hits filed as inhibitors | 350,000 tested, 8.8% active; also: nearly all actives have a fitted effect of over 75% in size
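Signal arises when biotinylated H3K9 peptide, once monomethylated, bridges streptavidin donor and antibody-captured acceptor beads. Enzyme at 20 nM was preincubated 15 min with test compounds; peptide 500 nM and SAM 20 uM then reacted for 2 h.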
miR-21 reporter – miR-21 reporter, rising signal | AID 2288 | HeLa miR-21 FLuc reporter, luciferase, 48 h | 340,000 tested, under 10 active | Potency, µM (titrated, usually from 38.3 µM); active = well fitted rising curve with a large enough effect; inconclusive = small, poorly fitted or top-dose-only effect; inactive = no such curve, though single readings can be large or run the other way;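 also: miR-21 action dims this reporter so a rising signal means less miR-21 action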
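HeLa miR-21-FLuc reporter line, endogenous miR-21; 2000 cells/well in DMEM/10% FBS; compound titration up to ~40uM final, 48 h, 37 degree Celsius; luciferase detection reagent, 15 min lysis, CCD luminescence.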
Sfp inh – blocks B. subtilis Sfp PPTase activity | Potency, µM, most hits filed as inhibitors | Biochemical Sfp PPTase activity, qHTS | Q9F4F7 | AID 1490 | 310,000 tested, 3.5% active;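 also: the enzyme is Sfp with the accession as filed and its product quenches rhodamine fluorescence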
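Reaction rates are the 30-min fluorescence difference (ex 525, em 598 nm) in wells containing 15 nM Sfp, 5 uM rhodamine-CoA and 12.5 uM BHQ-2-YbbR at pH 7.6 with 10 mM MgCl2.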
Of the large screens only hits and unclear results are named; the others gave an inactive call; ! = not active in a repeat. Unless noted, calls follow the shape of the dose curve; as a rule, active = well fitted curve in the direction sought with a large enough effect; inconclusive = small, poorly fitted or top-dose-only effect, or another doubt; inactive = no such curve, though single readings can be large; an effect the other way counts as inactive or inconclusive.

O=C(NCC(c1ccco1)N1CCc2ccccc2C1)c1cccc(Br)c1 (stereo not drawn)	none (no result: KDM4E inh, LMNA splice mod, ALDH1A1 inh, miR-21 reporter, Sfp inh)
CCCCN(CC)CCCNC(=S)Nc1ccc2nc3n(c(=O)c2c1)CCCCC3	KDM4E inh inconclusive, ALDH1A1 inh inconclusive, G9a block 45µM
CC1CCCCN1C(=S)Nc1ccc2nc3n(c(=O)c2c1)CCCCC3 (stereo not drawn)	KDM4E inh inconclusive, ALDH1A1 inh inconclusive, G9a block inconclusive
CC(C)NC(=S)Nc1ccc2nc3n(c(=O)c2c1)CCCCC3	none
O=C(Nc1ccc2nc3n(c(=O)c2c1)CCCCC3)c1ccccn1	LMNA splice mod inconclusive, ALDH1A1 inh inconclusive, G9a block 25µM
O=c1c2cc(NC(=S)NCc3ccccn3)ccc2nc2n1CCCCC2	KDM4E inh inconclusive, ALDH1A1 inh inconclusive, G9a block 40µM
O=c1c2cc(NC(=S)N3CCC(N4CCCCC4)CC3)ccc2nc2n1CCCCC2	KDM4E inh inconclusive, Sfp inh 79µM
COc1cc(CCC(=O)NCc2ccc3c(c2)OCO3)cc(OC)c1OC	none (no result: KDM4E inh, LMNA splice mod, ALDH1A1 inh)
CCCC[C@]12Cc3cc(C#N)ccc3C(O1)c1c(c3cc(F)ccc3oc1=O)O2	none (no result: KDM4E inh, LMNA splice mod, ALDH1A1 inh, G9a block)
O=c1c2cc(NC(=S)NCCCN3CCC(Cc4ccccc4)CC3)ccc2nc2n1CCCCC2	LMNA splice mod inconclusive, G9a block inconclusive
O=c1c2cc(NC(=S)NCCN3CCCCCC3)ccc2nc2n1CCCCC2	KDM4E inh inconclusive, ALDH1A1 inh 20µM, G9a block inconclusive
CCOc1ccc(N(CC)S(=O)(=O)c2cc(Br)cc3c2N(C(C)=O)C(C)C3)cc1 (stereo not drawn)	G9a block 1.4µM, miR-21 reporter inconclusive (no result: KDM4E inh, LMNA splice mod, ALDH1A1 inh, Sfp inh)
COc1ccccc1NC(=O)c1ccc(NC(=O)CSc2nc(N)cc(=O)[nH]2)cc1	none (no result: KDM4E inh, LMNA splice mod, ALDH1A1 inh, miR-21 reporter, Sfp inh)
O=C(Nc1ccc(Cl)cc1)c1cc(S(=O)(=O)NC2CCCCCC2)ccc1F	LMNA splice mod inconclusive, miR-21 reporter inconclusive (no result: KDM4E inh, ALDH1A1 inh, Sfp inh)
CCOC(=O)N1CCN(C(=O)CN(C2CCCCC2)S(=O)(=O)c2ccc(C)cc2)CC1	ALDH1A1 inh 7.1µM
Cc1ccc(S(=O)(=O)C2(C(=O)N3CCN(C4CCCCC4)CC3)CC2)cc1	none
Cc1ccc(S(=O)(=O)C2(C(=O)N3CCCCCC3)CC2)cc1	ALDH1A1 inh 7.1µM
Cc1ccc(S(=O)(=O)N(CC(=O)N2CCN(c3ccc(F)cc3)CC2)C2CCCCC2)cc1	ALDH1A1 inh inconclusive
COc1ccc(S(=O)(=O)N(C)CC(=O)N2CCN(Cc3ccccc3)CC2)cc1C	LMNA splice mod inconclusive, ALDH1A1 inh 16µM
Cc1cc(C)cc(N(CC(=O)N2CCN(Cc3ccccc3)CC2)S(=O)(=O)c2c(C)noc2C)c1	G9a block 50µM
CCCCn1c(N)c(N(CCOC)C(=O)c2cc(C)oc2C)c(=O)[nH]c1=O	none (no result: KDM4E inh, LMNA splice mod, ALDH1A1 inh, miR-21 reporter, Sfp inh)
Cc1ccc(S(=O)(=O)N(C)CC(=O)N2CCCC2)cc1	ALDH1A1 inh 3.5µM
COCCCNC(=O)CN(C1CCCCC1)S(=O)(=O)c1ccc(C)cc1	ALDH1A1 inh 14µM, G9a block inconclusive
CC(=O)N1CC=CC1(C)C(=O)NCc1cc(F)cc(C(F)(F)F)c1 (stereo not drawn)	G9a block 40µM
COC(=O)N1CC=CC1(C)C(=O)NCc1cc(F)cc(C(F)(F)F)c1 (stereo not drawn)	none
NS(=O)(=O)c1ccc(NC(=S)NC(=O)c2cccs2)cc1	Sfp inh inconclusive (no result: LMNA splice mod, ALDH1A1 inh, G9a block)
CN(C)S(=O)(=O)c1cccc(NC(=S)NC(=O)c2ccco2)c1	G9a block 40µM (no result: KDM4E inh, LMNA splice mod, ALDH1A1 inh, miR-21 reporter, Sfp inh)
Cc1cc(C)cc(NS(=O)(=O)c2ccc(NC(=S)NC(=O)c3ccc(Br)o3)cc2)c1	LMNA splice mod inconclusive, ALDH1A1 inh 14µM, G9a block inconclusive, Sfp inh inconclusive
NS(=O)(=O)c1ccc(NC(=S)NC(=O)c2ccc(Br)o2)cc1	ALDH1A1 inh inconclusive, G9a block inconclusive, Sfp inh 56µM
CC(=O)NS(=O)(=O)c1ccc(NC(=S)NC(=O)c2ccco2)cc1	Sfp inh inconclusive (no result: G9a block)
Cc1cc(C)cc(NS(=O)(=O)c2ccc(NC(=S)Nc3ccccc3)cc2)c1	LMNA splice mod inconclusive
NS(=O)(=O)c1ccc(NC(=S)NC(=O)c2ccco2)cc1	ALDH1A1 inh inconclusive, G9a block 56µM, Sfp inh 45µM!

Assay outcomes: PubChem BioAssay, National Center for Advancing Translational Sciences (NCATS)
